Measured values published in patent US7989585B2, “Chronic treatment regimen using glucagon-like insulinotropic peptides” (Eli Lilly and Company, priority 2000, dated 2011).

Protein sequences, listed by entry. Tags and fused reporters are not part of them. Residues count along the entry.
UniProt P43220, 24-463: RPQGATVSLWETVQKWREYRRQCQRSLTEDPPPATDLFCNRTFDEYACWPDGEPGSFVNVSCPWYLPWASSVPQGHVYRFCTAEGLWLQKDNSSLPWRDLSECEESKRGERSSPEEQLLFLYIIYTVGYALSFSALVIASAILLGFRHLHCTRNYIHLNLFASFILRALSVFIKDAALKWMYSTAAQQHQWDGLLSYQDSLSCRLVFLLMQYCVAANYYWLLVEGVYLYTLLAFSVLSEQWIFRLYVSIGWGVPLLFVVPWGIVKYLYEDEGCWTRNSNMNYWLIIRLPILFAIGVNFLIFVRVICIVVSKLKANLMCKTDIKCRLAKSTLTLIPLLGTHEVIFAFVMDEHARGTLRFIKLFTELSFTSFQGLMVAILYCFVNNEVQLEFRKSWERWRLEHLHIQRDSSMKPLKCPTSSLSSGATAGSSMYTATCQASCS

Target: T1, human GLP-1 receptor (Homo sapiens, UniProt P43220)
T1 construct: expressed in transfected cells; host or cells: HEK-293 Aurora CRE-BLAM cells
Assay: In vitro potency assay (CRE-BLAM fluorescence assay)
Format: cell-based
Settings: from EC50, HEK-293 Aurora CRE-BLAM cells; Val^8-GLP-1(7-37)OH control = 1
From the text: The assay is discussed in more detail on page 17 and in example 3.
These HEK-293 cells have stably integrated a DNA vector having a cAMP response element (CRE) driving expression of the β-lactamase (BLAM) gene. […] The assay is further described in Zlokarnik, et al. (1998) Science 279:84-88 (See also Example 3).
The day after seeding, the medium is replaced with plasma free medium.

Substance: GLP-1(7-36)NH2 [reference compound]
- In vitro activity relative to Val^8-GLP-1(7-37)OH: 1.50
